Where two headings read alike, the source gives them in different places.
Target: T1, human EGF receptor (Homo sapiens, UniProt P00533)
T1 construct: expressed in transfected cells; host or cells: NIH3T3 clone C7 (EGFR/C7; mouse fibroblasts)
Test: EGF-receptor whole cell kinase assay (EGFR-3T3)
Type: cell-based
Source text: This example illustrates the ability of the exemplary compounds to inhibit receptor tyrosine kinases, such as HER2 and/or EGFR. The following target cells were used for cellular kinaseassays: NIH3T3 clone C7 (Honegger et al., supra) engineered to over-express human EGF receptor; NIH3T3 cells engineered to over-express a chimeric receptor containing the EGFR extracellular domain and the HER2 intracellular kinase domain; the human mammary carcinoma line BT474 (ATCC HTB2) expressing HER2; and the human glioblastoma line U1242 that expresses PDGFR-β. Growth assays were carried out using human mammary epithelial SKBR3 (ATCC HTB30) cells, SKOV3 (ATCC HTB77) human ovarian cancer cell line, A431 cells, MCF7 human breast carcinoma cells, MCF7 cells overexpress the HER2 kinase (MCF7-HER2), NIH3T3 cells, and NIH3T3 cells overexpressing the HER2 kinase (3T3-HER2).
Unless otherwise stated the effect of various compounds on receptor tyrosine kinases were assayed as described in this section.
1. EGF-receptor Whole Cell Kinase Assay
EGFR kinase activity (EGFR-3T3 assay) in whole cells was measured as described below:
The following protocol was used:
A. Coat ELISA plates (Corning, 96 well, Cat. #25805-96) with 05-101 antibody at 0.5 μg per well in PBS, 150 μl final volume/well, and store overnight at 4° C. Coated plates are good for up to 10 days when stored at 4° C. […]

Amino acid sequences for entries named in this document (tags omitted). Residues count along the entry.
UniProt P00533, 25-1210: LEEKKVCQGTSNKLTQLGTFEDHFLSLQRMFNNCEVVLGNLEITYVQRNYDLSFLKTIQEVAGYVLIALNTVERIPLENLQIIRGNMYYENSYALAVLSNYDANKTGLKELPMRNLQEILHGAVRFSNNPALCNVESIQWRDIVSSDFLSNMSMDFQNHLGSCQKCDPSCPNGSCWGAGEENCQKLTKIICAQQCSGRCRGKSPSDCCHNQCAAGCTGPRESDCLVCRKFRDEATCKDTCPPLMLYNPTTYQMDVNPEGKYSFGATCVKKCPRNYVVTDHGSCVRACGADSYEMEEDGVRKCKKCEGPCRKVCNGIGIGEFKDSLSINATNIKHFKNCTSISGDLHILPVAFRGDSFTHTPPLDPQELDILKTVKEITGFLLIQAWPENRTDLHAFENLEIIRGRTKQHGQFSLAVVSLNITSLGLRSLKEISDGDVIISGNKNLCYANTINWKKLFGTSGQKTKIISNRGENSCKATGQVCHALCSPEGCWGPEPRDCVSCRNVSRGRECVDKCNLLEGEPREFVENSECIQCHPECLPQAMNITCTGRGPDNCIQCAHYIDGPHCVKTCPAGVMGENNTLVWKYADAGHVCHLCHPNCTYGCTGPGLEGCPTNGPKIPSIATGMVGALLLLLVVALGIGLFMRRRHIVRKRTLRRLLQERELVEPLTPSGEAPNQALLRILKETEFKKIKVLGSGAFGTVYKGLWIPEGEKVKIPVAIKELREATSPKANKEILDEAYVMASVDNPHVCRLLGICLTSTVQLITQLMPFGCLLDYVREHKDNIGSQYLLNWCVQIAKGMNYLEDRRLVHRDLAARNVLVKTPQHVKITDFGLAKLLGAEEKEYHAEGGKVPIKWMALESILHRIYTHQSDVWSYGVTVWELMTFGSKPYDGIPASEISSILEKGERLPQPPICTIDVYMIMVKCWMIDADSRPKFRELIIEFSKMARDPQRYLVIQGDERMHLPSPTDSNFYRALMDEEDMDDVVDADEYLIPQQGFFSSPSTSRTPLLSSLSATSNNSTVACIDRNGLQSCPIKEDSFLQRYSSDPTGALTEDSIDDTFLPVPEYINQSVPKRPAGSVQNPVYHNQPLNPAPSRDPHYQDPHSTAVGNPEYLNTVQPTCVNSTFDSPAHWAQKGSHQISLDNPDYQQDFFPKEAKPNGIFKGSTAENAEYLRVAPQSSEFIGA

## COc1cc2ncnc(Nc3cccc(Cl)c3)c2cc1OC [Compound P13a]
Table III, cellular kinase assay, class symbol, read-out: EGFR
  IC50: < 50000 nM
Table V, read-out: Estimated IC50 Cellular Kinase Assays EGFR (EGF-3T3)
  IC50: 3 nM
